Laboratory results taken from patent publication US5017489A (priority 1988, dated 1991).

What was measured:
[1] = molecular target: T1, human BLT-serine esterase (NP-40 solubilized HE-14 membranes) (Homo sapiens, UniProt P12544)
T1 sequence (P12544 29-262): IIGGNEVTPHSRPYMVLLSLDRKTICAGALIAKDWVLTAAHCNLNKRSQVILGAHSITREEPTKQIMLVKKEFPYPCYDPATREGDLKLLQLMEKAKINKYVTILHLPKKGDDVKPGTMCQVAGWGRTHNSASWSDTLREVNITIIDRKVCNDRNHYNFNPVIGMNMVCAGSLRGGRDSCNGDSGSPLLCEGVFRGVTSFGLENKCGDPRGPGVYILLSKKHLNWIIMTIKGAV

[2] = molecular target: T1, human BLT-serine esterase (NP-40 solubilized HE-14 membranes); experiment: biochemical; settings: 0.5 mM inhibitor

Row | SMILES | Esterase Activity OD412 [1] | Inhibition % [1] | inhibition of human BLT-serine esterase (in words) [1] | inhibition at 500 µM [2] [%] | inhibition of human BLT-serine esterase (in words) ([1]; human enzyme)
1 | Cc1ccc(S(=O)(=O)N[C@@H](CCCCN)C(=O)CCl)cc1 [TLCK, N-α-tosyl lysyl chloromethyl ketone] | 0.615 OD412 and 0.585 OD412 | -1% and 1% and 4% | not |  | 
2 | Cc1ccc(S(=O)(=O)N[C@@H](Cc2ccccc2)C(=O)CCl)cc1 [TPCK, N-tosyl-L-phenylalanine chloromethyl ketone] |  |  |  | 4 | not
3 | O=S(=O)(F)Cc1ccccc1 [PMSF, phenylmethylsulfonyl fluoride] | 0.018 OD412 | 97% | inhibited |  | 

“And” between values parts separate entries of the source, which are not always exact repeats. Identical values can stand only once. Like-named read-outs stand apart in the source and are kept apart here.
